# scFv variants of Ab-14 (heavy chain) against a SARS-CoV-2 spike peptide

The measurements come from Li et al. 2023 (doi:10.1038/s41467-023-39022-2) through the FLAb antibody collection.

Target: peptide PDVDLGDISGINAS, taken from heptad repeat 2 (HR2) of SARS-CoV-2 spike.

Parent: Ab-14, a human scFv built as VH, a 15-residue (Gly4Ser)3 linker, VL. Only the CDRs of the heavy chain vary.
VH: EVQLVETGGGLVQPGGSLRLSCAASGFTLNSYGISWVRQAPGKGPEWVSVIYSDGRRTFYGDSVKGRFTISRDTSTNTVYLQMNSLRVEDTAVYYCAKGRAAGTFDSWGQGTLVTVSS
VL: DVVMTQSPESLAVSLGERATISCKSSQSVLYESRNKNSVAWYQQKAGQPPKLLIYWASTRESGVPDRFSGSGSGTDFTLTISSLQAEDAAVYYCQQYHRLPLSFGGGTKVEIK

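Phage display of a naive human antibody library on the peptide gave the parent. The variants were designed computationally from a first round of random CDR variants and then made and measured. Several design methods are mixed in this list. AlphaSeq pools MATa yeast showing the antibodies with MATalpha yeast showing the peptide. After mating in shaken culture at 30 °C for 16 h, diploids were selected and their barcode pairs sequenced. A regression on co-assayed BCL2-family reference pairs converts the normalised counts of each replicate to an apparent Kd. There are six technical replicates.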

The parent's heavy chain CDRs are GFTLNSYGIS, VIYSDGRRTFYGDSVK, GRAAGTFDS; each variant's own CDRs replace them letter for letter. This list holds designs with at most six substitutions. Values are apparent Kd, the geometric mean of the replicates that gave a signal; lower means stronger binding. An entry "no signal" has no value in the source: the pair was not observed among the diploids in any replicate. This suggests poor binding but is not conclusive. Order: sorted from the lowest average up, undetected variants last.

CDR-H1,CDR-H2,CDR-H3,apparent Kd,replicates with signal
GFTLNEYGIS,VIYSDGRRTFYGDSFK,GRASGTFDS,190 pM,5 of 6
GFDLNEYGIS,VIYADGRRTFYKDSVK,GEAAGTFDI,190 pM,6 of 6
GFDLNEYGIS,VIYADGIRTFYADSVK,GNAAGTFDS,400 pM,6 of 6
GFDLNSYGIS,VIYADGRRTFYGDSVK,GKAAGTFDS,530 pM,6 of 6
GFSLNSYGIS,VIYSDGRRTFYGDSVK,GMEAGTFDS,540 pM,6 of 6
GFELNSYGIS,VIYSDGRRTFYGDSVK,GKEAGTFDT,680 pM,6 of 6
GFTLDSYGIS,VIYADGRRTFYGDAVK,GRTAGTFDS,720 pM,5 of 6
GFELNSYGIS,VIYADGRRTFYGDDVK,GKAAGTFDS,730 pM,6 of 6
GDTLNSYGIS,VIYADGRRTFYSDSVK,GRAAGTFDS,760 pM,6 of 6
GFSLNDYGIS,VIYSDGRRTFYGDSVK,GRTAGTFDN,780 pM,6 of 6
GFTLNSYGIS,VIYSDGRRTFYADSVK,GREAGTFDT,810 pM,6 of 6
GFTLNEYGIS,VIYSDGRRTFYSDAVK,GRNAGTFDS,870 pM,6 of 6
GFSLNDYGIS,VIYSDGRRTFYGDSVK,GRAAVTFDS,970 pM,6 of 6
GFNLNSYGIS,VIYSDGRRTFYGDRVK,GQTAGTFDL,1.0 nM,2 of 6
GFDLNSYGIS,VIYSDGRRTFYGDMVK,GREAGTFDS,1.5 nM,6 of 6
GFTLESYGIS,VIYSDGRRTFYDDSVK,GQVAGTFDS,1.7 nM,6 of 6
GFLLNSYGIS,VIYADGRRTFYGDSVK,GQAAGTFDS,1.8 nM,6 of 6
GFTLNEYGIS,VIYSDGRRTFYEDDVK,GRTAGTFDS,2.2 nM,6 of 6
GFDLNSYGIS,VIYSDGRRTFYGDQVK,GREAGTFDS,2.2 nM,6 of 6
GFDLNSYGIS,VIYSDGRRTFYGDKVK,GWTAGTFDS,2.4 nM,5 of 6
GFTLNNYGIS,VIYSDGRRTWYGDSVK,GREAGTFDS,2.5 nM,1 of 6
GFSLNSYGIS,VIYSDGRRTFYADHVK,GQAAGTFDT,2.8 nM,6 of 6
GFTLNSYGIS,VCYADGRRTFYGDSVK,GRAAGTNKS,3.1 nM,6 of 6
GFELNSYGIS,VIYSDGRRTQYIDSVK,GRAAGTFDS,4.4 nM,2 of 6
GFTLNEYGIS,VIYSDGRRTFYMDSVK,GRVAGTFDS,4.7 nM,6 of 6
GFELNTYGIS,VIYSDGRRTMYGDSVK,GRQAGTFDS,7.2 nM,5 of 6
GFTLNNYGIS,VIYSDGRRTFYDDSVK,GKLAGTFDS,7.5 nM,6 of 6
GFQLNDYGIS,VIYSDGRRTFYIDHVK,GNAAGTFDS,12 nM,6 of 6
MFDLNSYGIS,VIYSDGRRTFYGDSVK,GREAGTFDS,12 nM,6 of 6
SFSLNSYGIS,VIYSDGRRTFYSDSVK,GEAAGTFDS,12 nM,5 of 6
GFWLNEYGIS,VIYSDGRRTFYTDSVK,GRFAGTFDS,15 nM,6 of 6
GFSLNEYGIS,VIYSDGRRTFYGDSVK,GHAAGTFDT,18 nM,1 of 6
GFTLNKYGIS,VIYSDGRRTFYGDDVK,GRAAGTFDS,20 nM,1 of 6
GFELNSYGIS,VIYSDGRRTFYGDSVR,GQAAGTFDS,22 nM,6 of 6
GFTLNSYGIS,VIYSDGRRTFYSDSVK,GEAGGTFDF,22 nM,4 of 6
GFELNSYGIS,VIYSDGRRTFYADSVK,GRVAGTFDK,23 nM,6 of 6
GFTLDSYGIS,VIYADGRRTFYGDSVK,GRAAGTFGS,24 nM,2 of 6
GFSLNSYGIS,VIYSDGRRTFYGDPVK,GKTAGTFDS,25 nM,6 of 6
MFTLNSYGIS,VIYSDGRRTFYGDSVK,GQEAGTFDT,39 nM,6 of 6
GFDLNSYGIS,VIYSDGRRTFYCDSVK,GNAAGTFDS,39 nM,5 of 6
GFDLNSYGIS,VIYSDGRRTAYSDSVK,GRAGGTFDS,43 nM,5 of 6
GFDLNSYGIS,VIYSDGRRTFYDDSVK,GRAAVTFDS,52 nM,1 of 6
GFKLNEYGIS,VIYSDGRRTQYMDSVK,GRAAGTFDS,54 nM,6 of 6
GFTLNEYGIS,VIYSDGRRTFYRDSVK,GRAAKTFMS,160 nM,6 of 6
GFDNNSYGIS,VIYSDGRRTFYSDSVK,GRARGTFDL,270 nM,1 of 6
GFHLNSYGIS,VIYSDGRRTAYGDSVK,GRNAGTFDS,290 nM,5 of 6
GFTLNEYGIS,VIYSDGRRTFYGDSVK,GQAAATFDS,no signal,0 of 6
GFTLNDYGIS,VIYSDGRRTFYGDSVK,GRNAGTFES,no signal,0 of 6
GFSLNSYGIS,VIYKDGRRTFYGDSVK,GRDAGTFDS,no signal,0 of 6
GFMLNSYPIS,VIYSKGRRTFYDDSVK,GQLAGTFDS,no signal,0 of 6
GFTLGSYGIS,VIYSDGRRTFYGDQVR,GRHAGTFDS,no signal,0 of 6
MFSLNSYGIS,VIYSDGRRTFYGDSVK,GEAAGTFDS,no signal,0 of 6
GFWLNSYGIS,VIYSDGRRTFYADSVK,CTAAGTFDS,no signal,0 of 6
GFTLNSYGIS,VIYSDGRRTFYGDSVK,GRAAWHFES,no signal,0 of 6
GFTLNEYGKS,VIYSDGRRTFYTMSVK,GRFAGTFDS,no signal,0 of 6
GFHLNSYGIS,VIYSDGQRTFYVDSVK,GQAAGTFDS,no signal,0 of 6
GFTLNSYGIS,VIYSDGKRTFYGDSVK,GRAAGTFES,no signal,0 of 6
GFTLESYGIS,VIYSDGRRTFYEGSVK,GRAATTFDS,no signal,0 of 6
GFTLNSYGIS,VIYSDQRRTFYSDSVK,GRWGGTFFS,no signal,0 of 6
RFTLNSYGIS,VIYSDGRRTFYGDSVK,GRAAGSFDS,no signal,0 of 6
GFTLNSYGIS,VIYSDGRRTFYGDSVV,GYAAATFDS,no signal,0 of 6
GFWLNSYGIS,VIYSDGRRTFYGDSVK,CTAAGTFDT,no signal,0 of 6
GFTDNDYGIS,VIYSDGRRTFYGDSVK,GRAALTFIG,no signal,0 of 6
GFDLNSYGIS,VIYSDGRRTFYGDSVK,GRAAGCFYS,no signal,0 of 6
GFNLNSYGRS,VIYSDGRRTFYGDSVK,GRAAGSFPS,no signal,0 of 6
GFTLNSYGIS,VIYSDGRRTSYIDSVK,GRVQGTFDP,no signal,0 of 6
GFTLNSYGIS,VIYSDGRRTAYMDSVK,GRFAGTFRS,no signal,0 of 6
GFSLNDYGIS,VIYSDGRRTFYGDSVK,GRAALTFDR,no signal,0 of 6
GFTLNSYGIS,VIYSDGRRTFYSDSVK,GQAVGTFDS,no signal,0 of 6
GFNLNSYGIS,VIYSDGRRTFYGDWVK,GRQAGTFDS,no signal,0 of 6
GFELNSYGIS,VIYSDGRRTFYIDSVK,GREAGTFDS,no signal,0 of 6
GFTLDEYGIS,VIYSDGRRTFYGDSVK,GRAQGTFDS,no signal,0 of 6
GFTLNDYGIS,VIYSDGRRQFYGDSVK,GRAALTFCS,no signal,0 of 6
GNTLNDYGIS,VIYSDGRRTFYTDSVK,GRCAGTFDS,no signal,0 of 6
GFTLNSYGIS,VIYSDGRRTFYGDSVK,GRAAGGFDH,no signal,0 of 6
RFTLNSYGIS,VIYSDGRRTFYIDSVK,GRLAGTFDS,no signal,0 of 6
GFTLNSYGIS,VIYSRCRRTFYDDSVK,GQLAGTFDS,no signal,0 of 6
GFTLNSYGYS,VIYSDGRRTFYGDSFK,GREAGTFDS,no signal,0 of 6
GFTLNSYGIS,VIYSDGRRTFYGDAVK,GRSSGTFDS,no signal,0 of 6

A sequence measured in both rounds can read differently, since the two assays cover different ranges. The authors' rule: three or more of the six replicates give a measured affinity, fewer mean a poor binder. The parent sequence was in this pool as ten entries: three were never detected, three once, and four in most replicates, with averages from 2.2 nM to 240 nM. Empty control strains, which show no peptide, gave a signal in 1% of pairings with all heavy chain designs; the median was 120 nM and 95% of these signals were weaker than 7.0 nM. No background was subtracted.